{"sequences": {"note": "Chains of the proteins cited; added tags and fusions are not shown. A line that says so, or that is headed by a name, gives the form on record, which may keep a tag or linker. Residues count along the entry.", "UniProt E3UMS2, 1-296": "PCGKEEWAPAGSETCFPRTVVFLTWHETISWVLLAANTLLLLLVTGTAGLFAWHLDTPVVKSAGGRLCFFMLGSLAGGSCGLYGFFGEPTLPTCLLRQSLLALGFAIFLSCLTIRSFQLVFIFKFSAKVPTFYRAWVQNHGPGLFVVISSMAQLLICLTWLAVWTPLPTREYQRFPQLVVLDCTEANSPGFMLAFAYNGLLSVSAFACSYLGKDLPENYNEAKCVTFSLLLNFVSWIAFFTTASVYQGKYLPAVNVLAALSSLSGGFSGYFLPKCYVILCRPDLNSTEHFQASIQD", "UniProt Q49KI5, with tags, fused parts or gaps E206Q/F654L/N523D partner limits assumed": "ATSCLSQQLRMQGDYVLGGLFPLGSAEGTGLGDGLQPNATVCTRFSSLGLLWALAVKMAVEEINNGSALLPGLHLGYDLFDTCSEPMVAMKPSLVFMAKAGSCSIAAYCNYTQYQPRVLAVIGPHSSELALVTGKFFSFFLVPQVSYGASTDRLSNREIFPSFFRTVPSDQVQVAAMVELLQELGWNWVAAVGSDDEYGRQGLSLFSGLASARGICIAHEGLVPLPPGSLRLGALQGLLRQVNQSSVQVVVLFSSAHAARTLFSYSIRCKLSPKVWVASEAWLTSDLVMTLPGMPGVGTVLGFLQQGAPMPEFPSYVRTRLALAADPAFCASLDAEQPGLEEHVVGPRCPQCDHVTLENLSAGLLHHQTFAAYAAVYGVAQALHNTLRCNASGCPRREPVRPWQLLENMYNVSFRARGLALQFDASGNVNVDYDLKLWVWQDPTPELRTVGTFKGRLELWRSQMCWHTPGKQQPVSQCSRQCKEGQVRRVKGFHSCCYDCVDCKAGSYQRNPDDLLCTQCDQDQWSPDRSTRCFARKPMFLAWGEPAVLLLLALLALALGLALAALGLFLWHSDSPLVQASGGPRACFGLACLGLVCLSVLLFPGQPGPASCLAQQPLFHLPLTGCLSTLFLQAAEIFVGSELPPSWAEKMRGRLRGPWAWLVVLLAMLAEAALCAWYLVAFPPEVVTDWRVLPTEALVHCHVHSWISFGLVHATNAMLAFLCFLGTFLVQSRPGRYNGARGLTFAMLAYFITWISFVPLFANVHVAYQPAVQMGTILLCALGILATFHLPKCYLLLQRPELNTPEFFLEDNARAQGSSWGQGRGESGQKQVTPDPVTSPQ"}, "source": "patent US20190021380A1", "about": "(priority 2014, published 2019)", "target": "cat T1R1/T1R3 receptor (Felis catus, UniProt E3UMS2)", "note": "pEC50: −log10 of the molar value. Like-named read-outs stand apart in the source and are kept apart here."}
{"smiles": "O=P(O)(O)OC[C@H]1O[C@@H](n2cnc3c(=S)[nH]cnc32)[C@H](O)[C@@H]1O", "values": [{"measurement": "Activity", "value": "active"}, {"measurement": "Thres", "value": 0.005, "unit": "mM"}]}
{"smiles": "Nc1nc2c(ncn2[C@@H]2O[C@H](COP(=O)(O)O)[C@@H](O)[C@H]2O)c(=O)[nH]1", "note": "[GMP, guanosine monophosphate, reference compound]", "values": [{"measurement": "Activity", "setting": "tested form: disodium salt", "value": "active"}, {"measurement": "pEC50", "setting": "tested form: disodium salt", "value": 4.52}, {"measurement": "Max resp % of IMP", "setting": "tested form: disodium salt", "value": "132.1 % of IMP"}, {"measurement": "Thres", "setting": "tested form: disodium salt", "value": 0.008, "unit": "mM"}]}
{"smiles": "Nc1nc2c(ncn2[C@H]2C[C@H](O)[C@@H](COP(O)(O)=S)O2)c(=O)[nH]1", "values": [{"measurement": "function as activators of T1R1/T1R3", "setting": "in the presence of alanine, in words, tested form: sodium salt", "value": "activators of T1R1/T1R3"}, {"measurement": "pEC50", "setting": "read-out: EC50-with Ala, tested form: sodium salt", "value": 5.00}, {"measurement": "Max. resp. % of IMP", "setting": "tested form: sodium salt", "value": "86.7 % of IMP"}, {"measurement": "Threshold", "setting": "tested form: sodium salt", "value": 0.0025, "unit": "mM"}]}
